ChEMBL document CHEMBL4020833, “A Systematic Exploration of Macrocyclization in Apelin-13: Impact on Binding, Signaling, Stability, and Cardiovascular Effects” (J Med Chem, 2018)

Biological target: T1, Apelin receptor (Homo sapiens, UniProt P35414)
T1 sequence (P35414 whole entry): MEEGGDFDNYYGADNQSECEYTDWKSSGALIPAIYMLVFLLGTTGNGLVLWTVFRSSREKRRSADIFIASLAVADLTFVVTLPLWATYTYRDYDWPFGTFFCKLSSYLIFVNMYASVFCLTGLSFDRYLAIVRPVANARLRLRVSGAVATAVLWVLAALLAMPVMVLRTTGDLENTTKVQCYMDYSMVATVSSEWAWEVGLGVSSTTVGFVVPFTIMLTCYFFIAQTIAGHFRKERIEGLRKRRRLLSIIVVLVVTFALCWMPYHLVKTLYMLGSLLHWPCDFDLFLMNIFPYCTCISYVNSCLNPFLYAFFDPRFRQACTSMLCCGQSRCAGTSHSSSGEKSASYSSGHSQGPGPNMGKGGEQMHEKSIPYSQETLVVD
Experiment: Displacement of [125I]-[Nle75, Tyr77] Pyr1-apelin-13 from YFP-tagged human APJ receptor expressed in HEK293 cell membranes after 1 hr by gamma-counting method

Structure (SMILES): CCCC[C@H](NC(=O)[C@@H]1CCCN1C(=O)CNC(=O)[C@H](CCCCN)NC(=O)[C@@H]1C/C=C\C[C@H](NC(=O)[C@H](CCCNC(=N)N)NC(=O)[C@@H]2CCC(=O)N2)C(=O)N[C@@H](CCCNC(=N)N)C(=O)N[C@@H](CC(C)C)C(=O)N[C@@H](CO)C(=O)N1)C(=O)N1CCC[C@H]1C(=O)N[C@@H](Cc1ccccc1)C(=O)O
- Ki: 3 nM
